From PMC8532158

What was measured:
Assay in all cases: yeast surface display affinity sorting with deep sequencing, enrichments normalized to ddG of purified proteins
[1] = target: bovine alpha-chymotrypsin (Bos taurus) (UniProt P00766)
[2] = target: bovine trypsin (Bos taurus) (UniProt P00760)
[3] = target: human mesotrypsin (Homo sapiens) (UniProt P35030)

| ddG [1] [kcal/mol] | ddG [2] [kcal/mol] | ddG [3] [kcal/mol] | Substance |
| --- | --- | --- | --- |
| 0.922 | 4.24 | 1.77 | I18N (from UniProt P00974) |
| 3.52 | 5.14 | 1.78 | I18P (from UniProt P00974) |
| 0.598 | 3.4 | 2.43 | I18Q (from UniProt P00974) |
| -1.46 | 3.48 | 1.18 | I18R (from UniProt P00974) |
| 1.04 | 4.84 | 1.5 | I18S (from UniProt P00974) |
| 0.691 | 4.57 | 1.47 | I18T (from UniProt P00974) |
| 0.509 | 2.97 | 0.0432 | I18V (from UniProt P00974) |
| 0.589 | 2.53 | 0.255 | I18W (from UniProt P00974) |
| 0.906 | 2.17 | 0.0668 | I18Y (from UniProt P00974) |
| 4.17 | 11.1 | 0.801 | K15A (from UniProt P00974) |
| 4.09 | 11.6 | 2.02 | K15C (from UniProt P00974) |
| 3.6 | 9.44 | 1.47 | K15D (from UniProt P00974) |
| 2.98 | 8.94 | 1.56 | K15E (from UniProt P00974) |
| -1.97 | 8.29 | 1.34 | K15F (from UniProt P00974) |
| 4.57 | 11 | 1.97 | K15G (from UniProt P00974) |
| 0.371 | 8.36 | 1.71 | K15H (from UniProt P00974) |
| 3.26 | 10.5 | 0.509 | K15I (from UniProt P00974) |
| -1.36 | 9.41 | 2.02 | K15L (from UniProt P00974) |
| -1.57 | 8.61 | 2 | K15M (from UniProt P00974) |
| 1.87 | 8.61 | 1.48 | K15N (from UniProt P00974) |
| 3.48 | 9.77 | 2.66 | K15P (from UniProt P00974) |
| 0.534 | 8.15 | 2.25 | K15Q (from UniProt P00974) |

| ddG [1] [kcal/mol] | ddG [2] [kcal/mol] | ddG [3] [kcal/mol] | Substance |
| --- | --- | --- | --- |
| -1.27 | -1.44 | -0.295 | K15R (from UniProt P00974) |
| 3.53 | 8.76 | 1.71 | K15S (from UniProt P00974) |
| 3.21 | 9.61 | 2.54 | K15T (from UniProt P00974) |
| 4.16 | 10.3 | 1.82 | K15V (from UniProt P00974) |
| -1.45 | 8.74 | 1.7 | K15W (from UniProt P00974) |
| -2.6 | 8.96 | 1.64 | K15Y (from UniProt P00974) |
| 0.714 | 3.77 | -0.226 | P13A (from UniProt P00974) |
| 0.795 | 7.04 | 1.05 | P13C (from UniProt P00974) |
| 1 | 4.31 | -0.0265 | P13D (from UniProt P00974) |
| 0.949 | 4.4 | 0.427 | P13E (from UniProt P00974) |
| -0.761 | 0.452 | -0.321 | P13F (from UniProt P00974) |
| 0.818 | 4.27 | 1.09 | P13G (from UniProt P00974) |
| 0.231 | 3.54 | -0.0312 | P13H (from UniProt P00974) |
| -0.938 | 1.83 | 0.0616 | P13I (from UniProt P00974) |
| 0.0266 | 3.05 | 1.49 | P13K (from UniProt P00974) |
| -0.922 | 2.75 | -0.15 | P13L (from UniProt P00974) |
| -0.983 | 0.628 | 0.00615 | P13M (from UniProt P00974) |
| 0.482 | 3.64 | 0.38 | P13N (from UniProt P00974) |
| -0.0474 | 2.75 | -0.254 | P13Q (from UniProt P00974) |
| 0.0323 | 1.53 | -0.139 | P13R (from UniProt P00974) |
| 0.828 | 4.04 | 0.249 | P13S (from UniProt P00974) |
| 0.601 | 4.01 | 1.06 | P13T (from UniProt P00974) |

| ddG [1] [kcal/mol] | ddG [2] [kcal/mol] | ddG [3] [kcal/mol] | Substance |
| --- | --- | --- | --- |
| -0.619 | 1.68 | -0.808 | P13V (from UniProt P00974) |
| -0.0865 | 1.08 | -0.751 | P13W (from UniProt P00974) |
| -0.889 | 1.08 | -0.296 | P13Y (from UniProt P00974) |
| 0.809 | 2.18 | -1.54 | R17A (from UniProt P00974) |
| 0.744 | 3.97 | -1.5 | R17C (from UniProt P00974) |
| 4.13 | 4.77 | 0.603 | R17D (from UniProt P00974) |
| 4.39 | 5.11 | 1.85 | R17E (from UniProt P00974) |
| 0.0498 | 3.03 | -1.67 | R17F (from UniProt P00974) |
| 3.41 | 4.16 | -1.77 | R17G (from UniProt P00974) |
| 0.585 | 3.47 | -1.07 | R17H (from UniProt P00974) |
| 0.461 | 1.21 | 1.62 | R17I (from UniProt P00974) |
| 0.709 | 4.11 | 0.0179 | R17K (from UniProt P00974) |
| -0.217 | -0.314 | -1.42 | R17L (from UniProt P00974) |
| -0.294 | -0.0474 | -1.29 | R17M (from UniProt P00974) |
| 1.27 | 3.19 | -0.199 | R17N (from UniProt P00974) |
| 4.36 | 9.82 | 1.52 | R17P (from UniProt P00974) |
| 2.66 | 3.69 | -0.108 | R17Q (from UniProt P00974) |
| 0.924 | 3.17 | -1 | R17S (from UniProt P00974) |
| 3.54 | 3.88 | 0.484 | R17T (from UniProt P00974) |
| 2 | 2.33 | 0.495 | R17V (from UniProt P00974) |
| 0.579 | 4.74 | -1.41 | R17W (from UniProt P00974) |
| 0.227 | 2.78 | -1.79 | R17Y (from UniProt P00974) |
